Literature values, collected in patent publication US20200187504A1, “ENVIRONMENTALLY FRIENDLY COMPOSITIONS FOR FOLIAR AND GRANULAR CONTROL OF WEEDS” (priority 2018, published 2020).

System: humans
Conditions: 2005 carcinogen assessment guidelines; cited from earlier work

## borate salts
  U.S. EPA carcinogenicity classification: not likely to be carcinogenic to humans
